Target: Replicase polyprotein 1ab (Severe acute respiratory syndrome coronavirus 2, UniProt P0DTD1)
Assay: Inhibition of SARS-Cov-2 main protease using fluorogenic substrate [5-FAM]-AVLQSGFR-[Lys(Dabcyl)]-K-amide by fluorogenic assay

Compound: Cc1ccc(CCN)cc1
- IC50: 0.077 µM
